Experimental data published in US20090105278A1, “Selective inhibitors of human corticosteroid syntheses” (Universitat Des Saarlandes, priority 2004, published 2009).

By UniProt entry, the sequences of proteins in these tests, tags left out. Where a name states a change or a piece, a line headed by the entry shows the natural chain unless it says otherwise.
UniProt P11511: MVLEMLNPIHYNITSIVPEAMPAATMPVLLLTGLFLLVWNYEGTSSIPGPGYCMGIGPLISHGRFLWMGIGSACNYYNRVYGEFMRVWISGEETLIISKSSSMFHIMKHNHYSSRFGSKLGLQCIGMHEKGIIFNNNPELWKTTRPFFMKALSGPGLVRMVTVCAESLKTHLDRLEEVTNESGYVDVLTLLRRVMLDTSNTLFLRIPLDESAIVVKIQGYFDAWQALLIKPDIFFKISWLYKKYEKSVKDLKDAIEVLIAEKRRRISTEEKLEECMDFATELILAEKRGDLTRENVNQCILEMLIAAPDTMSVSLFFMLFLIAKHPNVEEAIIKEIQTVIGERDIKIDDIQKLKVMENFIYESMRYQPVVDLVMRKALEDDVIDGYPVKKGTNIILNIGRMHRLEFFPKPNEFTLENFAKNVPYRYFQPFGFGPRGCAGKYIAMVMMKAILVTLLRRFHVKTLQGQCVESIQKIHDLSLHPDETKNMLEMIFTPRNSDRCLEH

Tests used:
human CYP11B2 = target: T1, human CYP11B2 (Homo sapiens, UniProt P19099); test: V79 MZh 11B2 cells inhibition test; format: cell-based; set-up: expressed in transfected cells; host or cells: V79 MZh11B2 (Chinese hamster lung fibroblasts)
T1 sequence (P19099 25-503): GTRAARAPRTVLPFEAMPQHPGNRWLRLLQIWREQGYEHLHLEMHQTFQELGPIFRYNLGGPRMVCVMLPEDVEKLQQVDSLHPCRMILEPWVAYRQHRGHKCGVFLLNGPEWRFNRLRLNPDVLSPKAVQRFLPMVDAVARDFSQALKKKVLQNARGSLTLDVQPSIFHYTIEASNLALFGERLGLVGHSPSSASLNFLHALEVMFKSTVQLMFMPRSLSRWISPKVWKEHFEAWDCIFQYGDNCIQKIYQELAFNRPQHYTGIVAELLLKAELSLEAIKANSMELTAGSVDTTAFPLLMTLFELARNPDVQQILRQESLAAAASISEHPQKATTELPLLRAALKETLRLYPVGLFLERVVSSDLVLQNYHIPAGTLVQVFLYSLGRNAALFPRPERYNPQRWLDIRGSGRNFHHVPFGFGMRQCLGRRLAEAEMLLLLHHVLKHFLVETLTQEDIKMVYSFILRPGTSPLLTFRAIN

human CYP11B1 = target: T2, human CYP11B1 (Homo sapiens, UniProt P15538); test: V79 MZh 11B1 cells inhibition test
T2 sequence (P15538 25-503): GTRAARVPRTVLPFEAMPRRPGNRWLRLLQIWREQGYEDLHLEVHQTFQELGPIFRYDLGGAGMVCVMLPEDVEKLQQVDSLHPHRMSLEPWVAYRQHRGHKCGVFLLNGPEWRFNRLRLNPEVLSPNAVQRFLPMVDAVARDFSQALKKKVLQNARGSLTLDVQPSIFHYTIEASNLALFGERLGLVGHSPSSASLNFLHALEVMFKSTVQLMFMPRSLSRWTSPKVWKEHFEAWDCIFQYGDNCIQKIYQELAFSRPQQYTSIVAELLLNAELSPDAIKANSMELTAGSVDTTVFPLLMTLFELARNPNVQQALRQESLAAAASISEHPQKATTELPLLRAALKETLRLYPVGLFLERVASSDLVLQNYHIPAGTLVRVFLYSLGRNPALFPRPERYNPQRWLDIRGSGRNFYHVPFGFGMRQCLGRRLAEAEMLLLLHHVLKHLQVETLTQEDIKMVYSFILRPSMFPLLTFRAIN

human placental CYP19 = target: T3, human placental CYP19 (Homo sapiens, UniProt P11511); test: IC50 of CYP19 (human placental microsomes); format: biochemical; conditions: testosterone substrate 2.5 μM
T3 construct: The enzyme was obtained from the microsome fraction of fresh human placenta; from tissue; host or cells: human placenta, microsomal fraction

[1] = hamster fibroblasts which express human CYP11B2, deoxycorticosterone substrate 100 nM, read-out: IC50 V79 11B2 hCYP11B2

Row | Structure (SMILES) | IC50 (human CYP11B2) | IC50 (human CYP11B1) | IC50 (human placental CYP19) | IC50 (human CYP11B2; [1])
1 | N#Cc1ccc2c(c1)CC/C2=C/c1cnc[nH]1.O=C(O)C(=O)O [Compound 45b, (1Z)-1-(1H-Imidazole-5-ylmethylene)indane-5-carbonitrile oxalate] | 35.7 nM | 12.3 nM |  | 
2 | C(=C1\CCc2ccccc21)/c1cnc[nH]1 [Compound 42b, 5-[(Z)-2,3-Dihydro-1H-ind-1-ylidenemethyl]-1H-imidazolium oxalate] |  |  | 130 nM | 
3 | Fc1ccc2c(c1)CC/C2=C\c1cnc[nH]1 [Compound 47a, 5-[(E)-(5-Fluoro-2,3-dihydro-1H-indene-1-ylidenemethyl]-1H-imidazolium chloride] |  |  | 218 nM | 
4 | N#Cc1ccc2c(c1)CCC/C2=C/c1cnc[nH]1.O=C(O)C(=O)O [Compound 44b, (5Z)-5-(1H-Imidazole-5-ylmethylene)-5,6,7,8-tetrahydronaphthalene-2-carbonitrile oxalate] |  |  | 125 nM | 22.7 nM
5 | N#Cc1ccc2c(c1)CC/C2=C\c1cnc[nH]1.O=C(O)C(=O)O [Compound 45a, (1E)-1-(1H-Imidazole-5-ylmethylene)indane-5-carbonitrile oxalate] |  |  | 119 nM | 35.9 nM
6 | C(=C1/CCc2ccccc21)/c1cnc[nH]1 [Compound 42a, 5-[(E)-2,3-Dihydro-1H-indane-1-ylidenemethyl]-1H-imidazole] |  |  | 955 nM | 

Where a name gives a salt, the structure may show the parent alone. Read-outs that look alike come from different tables or passages of the source.
